{"source": "ChEMBL document CHEMBL4229322", "about": "“Antibacterial Paramagnetic Quinones from Actinoallomurus” (2017)", "test_system": "Pseudomonas aeruginosa", "assay": "Antimicrobial activity against Pseudomonas aeruginosa ATCC 27853 by broth microdilution method", "assay_type": "functional"}
{"sequence": "GENTAMICIN", "values": [{"measurement": "MIC", "result": 0.5, "unit": "µg/mL"}]}
